Measurements reported in patent US20070161107A1, “Differentiation of human embryonic stem cells to cardiomyocytes” (priority 2003, published 2007).

System: hES cells
Assay: Direct addition of growth factors to hES cells, differentiation
Format: cell-based, human
From the text: Before hES cells can be applied clinically it is important to control their growth and differentiation. Both embryonic and adult stem cells from the mouse apparently respond to cues within the mouse embryo to differentiate to (virtually) all somatic tissues (reviewed in 25). If these cues and the signal transduction pathways they activate can be identified, this knowledge can be utilized in controlling differentiation of stem cells in culture and in vivo. Here, we have identified (visceral-) endoderm as a cellular source of signals that result in human ES cells differentiating to cardiomyocytes with characteristics of fetal ventricular, atrial or pacemaker cells. This is the first time that inductive cellular sources of signals have been identified that result in human ES cells forming cardiomyocytes, although various studies have shown that cells with endodermlike properties have this effect on mouse ES and EC cells (1, 3, 26-28). […] This contrasts with other reports (11-13) where the hES cells do form embryoid bodies containing cardiomyocytes. […] Endoderm in the mouse embryo expresses BMP2 (31) and inhibitors of wnt signaling (32, 33). […] We therefore think it unlikely that activation of the BMP signaling pathway is the primary event initiated by END-2/hES cell co-culture. […]

B1: BMP2: BMP signalling factor expressed by mouse embryo endoderm, added directly to hES cells (protein, UniProt P12643 283-396, looked up)
Bone morphogenetic protein 2: QAKHKQRKRLKSSCKRHPLYVDFSDVGWNDWIVAPPGYHAFYCHGECPFPLADHLNSTNHAIVQTLVNSVNSKIPKACCVPTELSAISMLYLDENEKVVLKNYQDMVVEGCGCR
cardiomyocyte differentiation of hES cells: did not result in cardiomyocyte differentiation | lineage formed by hES cells (data not shown): appeared to form extraembryonic endoderm
